According to patent US9061077B2, “Methods of determining renal function using technetium-99m tricarbonyl-nitrilotriacetic acid” (Emory University, priority 2008, dated 2015):

Tested on: plasma protein
Experiment: Plasma protein binding by ultrafiltration, rat plasma
Assay type: in vitro ADME
Conditions: rats
Description: Arterial blood samples were placed in capillary tubes and centrifuged to determine the hematocrit. Samples of the whole blood and packed cells (about 0.3 mL each) were pipetted into counting tubes, weighed, and counted. The percent uptake in the erythrocytes was calculated from the whole blood (counts/g) and packed cells (counts/g). Percent erythrocyte uptake=[(counts/g in erythrocytes×hematocrit)/counts/g in whole blood]. No correction was made for plasma trapped in the red blood cells sample. PPB and erythrocyte uptake were calculated in duplicate and the mean values reported.

- Plasma protein binding: 67±7%
Substance: technetium-99m tricarbonyl-nitrilotriacetic acid [^99mTc(CO)3(NTA)]
